Screening results deposited in PubChem by Broad Institute.
PGC1a acetyl inh = PGC1a acetylation modulation, inhibitor mode | 350,000 tested, 0.17% active | U2OS PGC1a acetylation, AlphaScreen anti-acetyl-lysine; with virally co-expressed GCN5 acetyltransferase | inhibition, % at 15.6 µM;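 active = every replicate shows inhibition of at least 40%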;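 note: 0% = neutral control wells and 100% = positive control wells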
Env fusion inh = HIV envelope-mediated fusion inhibition; 360,000 tested, 1.1% active; inhibition, % at 12.3 µM; HeLa-JRFL Env/CEM21 cell fusion, luciferase; AID 651610;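 active = mean replicate inhibition score of at least 50 and every replicate individually at or above 50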;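 note: 0% = plate neutral controls and 100% = maraviroc near 300 nM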
FN deposition inh = fibronectin deposition inhibition. AH1F fibroblasts, Alexa488-fibronectin deposition fluorescence, overnight. inhibition, % at 12.6 µM. 350,000 tested, 0.086% active;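 active = mean inhibition across replicates of 30% or more, regardless of how many single replicates reach that level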;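 note: positive control wells lacked labelled fibronectin entirely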
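Material: AH1F fibroblasts assembling fluorescent fibronectin matrix; amount: 10000 AH1F cells/well; medium: DMEM, 2% serum; reagent: Alexa488-fibronectin, 24 nM final in well; dosing: single compound dose, delivered by pin transfer; incubation: 1 h adhesion, overnight exposure; detection: fluorescence after three HBSS washes, excitation 485 nm, emission 525 nm; measure: fibronectin deposition inhibition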
miR-122 sensor = miR-122 inhibition in Huh7 cells; Huh7 miR-122 Renilla luciferase sensor, 48 h; neutral wells = 0, positive control = 100; activation (reporter increase), % at 12.5 µM; 340,000 tested, 0.3% active; AID 602342;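 active = mean replicate activation score at least 90 and every replicate individually at or above 90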;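 note: higher luciferase means less miR-122 activity so hits act as miR-122 inhibitors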
Cneo AK release = Cryptococcus neoformans lysis via adenylate kinase release | AID 651654 | C. neoformans lysis, adenylate kinase release luminescence, 4 h; normalised: neutral wells 0, clomiphene wells 100 | 360,000 tested, 0.2% active | lysis activity, % at 15 µM;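 active = mean lysis activity across replicates of at least 80%, whatever share of replicates individually reach that level; inactive = mean lysis activity below 80%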
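Assay system: Cryptococcus neoformans yeast cells / Dosing: single-point compound dose / Timing: 4 h at 37 °C static, read 1 h later / Measured by: luminescence of released adenylate kinase using an AK detection reagent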
UUG fidelity = alters start codon recognition fidelity in yeast; S. cerevisiae UUG-firefly luciferase reporter, luminescence/redox ratio; activity score, % at 18.7 µM; actives 0.13% (n = 350,000);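 active means replicate mean at a twofold rise or more, about +100% in these data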;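 further: firefly luciferase made from a UUG start codon reports start codon fidelity; reporter light over untreated wells divided by growth signal over untreated wells; some hits fall short of that in this replicate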
Starred values were filed as active, the others as inactive; . = no result given; [ ] = dose if it differs, or a comment. An excerpt weighted towards active compounds, which were near 1.5% of everything screened.

SMILES	PGC1a acetyl inh	Env fusion inh	FN deposition inh	miR-122 sensor	Cneo AK release	UUG fidelity
C[C@@H]1CCCCO[C@H](CN(C)C(=O)c2ccncc2)[C@@H](C)CN([C@@H](C)CO)C(=O)c2cc(NC(=O)Cc3ccccc3)ccc2O1	1	-7[16.7 µM]	-4	-5[16.7 µM]	0	21
C[C@H](CO)N1C[C@H](C)[C@@H](CN(C)C(=O)c2ccncc2)OCCCC[C@H](C)Oc2ccc(NC(=O)Cc3ccccc3)cc2C1=O	-7	2[16.7 µM]	-1	10[16.7 µM]	102*	21
O=C(OCC(=O)c1cccc2ccccc12)c1ccc(CO)cc1	0	.	-1	-4	-4	-8
CC(C)CNS(=O)(=O)c1cc2c3c(c1)CCC(=O)N3CCC2	1	-1	2	93*	0	-14
CC(C)(C)NS(=O)(=O)c1cc2c3c(c1)CCN3C(=O)CC2	5	3	1	-3	-1	6
CC1CC(NS(=O)(=O)c2cc3c4c(c2)CCN4C(=O)CC3)CC(C)(C)C1 (stereo not given)	.	61*	1	.	-1	2
Cc1nnc(SCc2ccccc2Cl)n(N)c1=O	0	-14	5	-3	-1	-13
Cc1cc(C)nc(NC(=O)c2c(C(=O)O)noc2C)n1	2	-5	.	0	-3	-18
S=C(NC1CCCCC1)c1ccc2c(c1)OCO2	-1	.	.	0	.	.
COC(=O)c1cc2c(c3c4cc(OC)ccc4n(S(=O)(=O)c4ccccc4)c13)C(=O)N(Cc1ccc(C(F)(F)F)cc1)C2	.	96*	4	.	.	.

The last 3 records of the part before are carried over, then new ones follow.
SMILES	PGC1a acetyl inh	Env fusion inh	FN deposition inh	miR-122 sensor	Cneo AK release	UUG fidelity
Cc1cc(C)nc(NC(=O)c2c(C(=O)O)noc2C)n1	2	-5	.	0	-3	-18
S=C(NC1CCCCC1)c1ccc2c(c1)OCO2	-1	.	.	0	.	.
COC(=O)c1cc2c(c3c4cc(OC)ccc4n(S(=O)(=O)c4ccccc4)c13)C(=O)N(Cc1ccc(C(F)(F)F)cc1)C2	.	96*	4	.	.	.
O=C(CNC(=O)c1ccccc1F)NCCN1C(=O)S/C(=C\c2ccccc2Cl)C1=O	.	.	1	-4	0	-8
Cc1c2c(nc3c(C(=O)NC4CCCC4)cnn13)CCCC2	2	19	-16	0	-1	-19
COc1ccc(C(C(=O)NC(C)(C)C)N(Cc2ccco2)C(=O)CCC(=O)Nc2cc(C)on2)cc1 (stereo not given)	.	-102	-2	-4	-1	-2
CCC(C)(C)NC(=O)C(c1ccc(OC)cc1)N(Cc1ccco1)C(=O)CCC(=O)Nc1cc(C)on1 (stereo not given)	-8	34*	0	-11	1	-12
CCn1nc(C)c(CN2CCCC(C(=O)c3cccc(OC(C)C)c3)C2)c1C (stereo not given)	-4	27	.	-3	0	-4
Cc1ccccc1NC(=S)NC(=O)CCc1ccccc1	8	-28	6	-4	103*	0
CCc1nc2ccc(C(=O)N3CCN(C(=O)c4ccco4)CC3)cn2c1N(C)Cc1ccc(OC)cc1	3	72*	3	-6	-1	-15
CCc1nc2ccc(C(=O)N3CCN(C(=O)c4ccco4)CC3)cn2c1N(C)C(=O)COc1ccccc1	-2	-148	-2	97*	-3	-9
CCNc1nc(=S)nc(NC(C)C)[nH]1	.	-12	.	.	.	.
CCOc1ccc(Nc2cc(C)nc(N3CCOCC3)n2)cc1	-22	.	.	4	4	-11
Cc1noc(C)c1S(=O)(=O)N(C)C[C@@H]1Oc2c(NC(=O)c3cnccn3)cccc2C(=O)N([C@@H](C)CO)C[C@@H]1C	2	1[16.7 µM]	5	166*[16.7 µM]	114*	33
C[C@@H]1CN([C@H](C)CO)C(=O)c2cccc(NC(=O)c3cnccn3)c2O[C@H]1CN(C)Cc1ccccc1	8	64*[16.7 µM]	.	11[16.7 µM]	-2	35
C[C@@H]1CN([C@@H](C)CO)C(=O)c2cccc(NC(=O)c3cnccn3)c2O[C@H]1CN(C)Cc1ccc(C(F)(F)F)cc1	26	26[16.7 µM]	.	152*[16.7 µM]	61	11
O=C1COc2ccc(C(=O)COC(=O)COc3ccccc3[N+](=O)[O-])cc2N1	32	7	-2	-4	-6	-23
C[C@H]1CN=C(Nc2ccccc2)N1CCc1ccc(F)cc1	.	20	-2	.	-1	-21
O=C1CCCC2=C1C(c1ccccc1)C1C(=O)c3ccccc3C1=N2 (stereo not given)	.	30	-15	.	.	.
O=C1CCCC2=C1C(c1ccc(Cl)cc1)C1C(=O)c3ccccc3C1=N2 (stereo not given)	-47	59*	1	9	2	0
N#Cc1ccc(-c2ccc3c(c2)[C@H]2[C@H](CCN2C(=O)C2CC2)[C@H](CO)N3)cc1	1	.	-1	-10[16.7 µM]	-1	-11
COc1cc(OC)c2c(-c3cccc(-c4ccc(N(C)C)cc4)c3)cc(=O)oc2c1	-9	-164	-33	97*	0	-44
COc1cc(OC)c2c(-c3cccc(-c4ccc(OC(F)(F)F)cc4)c3)cc(=O)oc2c1	-2	9	-11	-9	3	-17
COc1cc(OC)c2c(-c3cccc(-c4ccc(O)cc4)c3)cc(=O)oc2c1	8	-64	15	99*	-5	-12
COc1cc(OC)c2c(-c3cccc(-c4cccc(C)c4)c3)cc(=O)oc2c1	-60	24	.	5	0	-12
COc1ccc(-c2cccc(-c3cc(=O)oc4cc(OC)c(OC)c(OC)c34)c2)cc1	-6	50*	.	10	-1	-28
COc1ccc(-c2cccc(-c3cc(=O)oc4cc(OC)cc(OC)c34)c2)cc1	-21	-29	.	104*	4	-11
O=C(COc1ccc(Br)cc1CO)N1CCCc2ccccc21	9	2	1	2	0	4
O=C(CNc1ccc(F)cc1)c1ccccc1	-2	106*	-4	.	.	.
O=C1Cc2c([nH]c3ccc([N+](=O)[O-])cc23)-c2ccccc2N1	.	96*	-1	.	.	.
COc1ccc(C2CC(=O)Oc3cc(C)c(Cl)cc32)cc1 (stereo not given)	-12	-27	0	-5	0	0
COC(=O)CC1C(=O)NCCN1C(=O)Nc1cccc(Cl)c1 (stereo not given)	13	9	.	.	0	-42
C#CCn1c(=O)c2c(ncn2C)n(C)c1=O	-13	72*	0	-5	3	-10

Two entries drawn at random from the list so far:
SMILES	PGC1a acetyl inh	Env fusion inh	FN deposition inh	miR-122 sensor	Cneo AK release	UUG fidelity
C[C@H](CO)N1C[C@H](C)[C@@H](CN(C)C(=O)c2ccncc2)OCCCC[C@H](C)Oc2ccc(NC(=O)Cc3ccccc3)cc2C1=O	-7	2[16.7 µM]	-1	10[16.7 µM]	102*	21
CCNc1nc(=S)nc(NC(C)C)[nH]1	.	-12	.	.	.	.

Next compounds follow:
SMILES	PGC1a acetyl inh	Env fusion inh	FN deposition inh	miR-122 sensor	Cneo AK release	UUG fidelity
CCCn1c(=O)c2c(ncn2C)n(CCC)c1=O	-3	-81	-2	-7	0	-19
O=C(CCCOc1ccc(Cl)cc1Cl)Nc1cc(S(=O)(=O)N2CCOCC2)ccc1N1CCOCC1	.	79*	9	.	0	-25
COc1ccc(S(=O)(=O)N2CCCCC2)cc1NC(=O)CCCOc1ccc(C)cc1	3	71*	-4	-2	1	-10
COc1ccc(S(=O)(=O)N2CCCCCC2)cc1NC(=O)CN(C)Cc1ccc2c(c1)OCO2	-1	58*	15	46	-1	-11
CN(CC(=O)Nc1cc(S(=O)(=O)N2CCCCCC2)ccc1Cl)Cc1ccc2c(c1)OCO2	-10	40	10	0	-1	1
